Reference: PubChem BioAssay AID652036 (The Scripps Research Institute Molecular Screening Center, 2013)
This is a selection; strong and weak results do not stand in their true shares. Active and inactive are the calls of the source. Rule as the data show it: active = inhibition above about 19%; inactive = the rest.

tested on: T-cell receptor (TCR)-CD3 interaction, human; test: blockers of TCR binding to CD3 – biochemical, fluorescence, TAMRA-labeled TCR probe, confirmation (AID 652036); details: TAMRA-labeled TCR probe fluorescence binding assay; at 9.4 µM; active compounds read high

Compound | inhibition
Nc1cccc2c([As](=O)(O)O)cccc12 | active: 27.1%
